The chains behind the UniProt entries cited, without tags or fusion partners.
UniProt Q9QUQ5, whole entry: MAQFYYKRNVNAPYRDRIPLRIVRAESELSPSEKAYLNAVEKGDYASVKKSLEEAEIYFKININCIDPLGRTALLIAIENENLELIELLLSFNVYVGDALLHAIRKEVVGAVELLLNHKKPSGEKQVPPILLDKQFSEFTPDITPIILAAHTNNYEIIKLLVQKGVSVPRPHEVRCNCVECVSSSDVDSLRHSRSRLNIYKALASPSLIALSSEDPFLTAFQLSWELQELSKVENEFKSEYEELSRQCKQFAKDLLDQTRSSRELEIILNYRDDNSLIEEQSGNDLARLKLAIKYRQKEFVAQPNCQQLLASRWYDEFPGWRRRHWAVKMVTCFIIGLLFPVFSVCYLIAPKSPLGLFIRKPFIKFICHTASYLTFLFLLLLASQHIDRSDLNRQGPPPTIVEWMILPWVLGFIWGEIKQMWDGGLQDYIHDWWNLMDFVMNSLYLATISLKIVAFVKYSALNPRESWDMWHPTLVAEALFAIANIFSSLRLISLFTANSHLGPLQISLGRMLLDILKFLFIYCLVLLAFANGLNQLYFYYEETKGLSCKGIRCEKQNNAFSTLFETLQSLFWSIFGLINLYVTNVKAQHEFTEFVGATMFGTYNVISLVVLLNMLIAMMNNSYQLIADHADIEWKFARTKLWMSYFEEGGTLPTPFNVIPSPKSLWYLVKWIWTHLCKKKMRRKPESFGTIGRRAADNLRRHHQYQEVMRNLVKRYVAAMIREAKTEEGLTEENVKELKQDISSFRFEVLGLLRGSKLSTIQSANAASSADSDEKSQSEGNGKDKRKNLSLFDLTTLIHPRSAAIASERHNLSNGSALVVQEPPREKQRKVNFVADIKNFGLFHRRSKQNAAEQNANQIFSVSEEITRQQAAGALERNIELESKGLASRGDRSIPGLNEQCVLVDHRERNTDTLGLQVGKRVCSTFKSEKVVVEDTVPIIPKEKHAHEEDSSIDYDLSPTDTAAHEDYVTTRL

The list shows a part of the results, in another mix than the full data. Some tests of the compounds listed are not included; inactive here does not mean inactive elsewhere. Calls of active or inactive are those of the source.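 How the source made its calls: active means B-score above 5 SD of library B-scores, and initial fluorescence ratio not above library mean plus 5 SD; inactive means the rest.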
The molecules below were run against Short transient receptor potential channel 4 (Mus musculus) (UniProt Q9QUQ5) (assay: TRPC4 cation channel opening, calcium rise – Fluo4 calcium, HEK293 TRPC4beta/mu-opioid cells, primary screen (AID 2237)). Settings: Fluo4 calcium fluorescence, at 10 µM.
In the case of `CN(C)c1cccc(C(=O)NCC2(N(C)C)CCCCC2)c1`, the outcome is reported as “inactive”.
In the case of `CC(C)Oc1ccc(C(=O)NCC2(N(C)C)CCCCC2)cc1`, the outcome is reported as “inactive”.
For `COc1ccc(Br)c(C(=O)NCC2(N3CCCCC3)CCCCC2)c1`, the outcome was “inactive”.
For `O=C(OC1CN2CCC1CC2)C(CO)(c1ccccc1)c1ccccc1` (stereo not drawn), the outcome was “inactive”.
With `O=C(NCC1(N2CCCCC2)CCCCC1)c1cccc(Cl)c1` the outcome was “inactive”.
`COc1cccc(C(=O)NCC2(N3CCCCC3)CCCCC2)c1` was tested, and the outcome was “inactive”.
With `COc1ccc(Cl)cc1C(=O)NCC1(N(C)C)CCCCC1` the outcome was “inactive”.
`COc1cc(C(=O)NCC2(N(C)C)CCCCC2)c([N+](=O)[O-])cc1OC` was tested, and the outcome was “inactive”.
With `CN(C)C1(CNC(=O)c2ccc(Br)cc2)CCCCC1` the outcome was “inactive”.
With `CCN1CCCC(OC(=O)C2(O)c3ccccc3C=Cc3ccccc32)C1` (stereo not drawn) the outcome was “inactive”.
With `Cc1cc(C(=O)NCC2(N3CCCCC3)CCCCC2)ccc1[N+](=O)[O-]` the outcome was “inactive”.
For `O=C(NCC1(N2CCCCC2)CCCCC1)c1cccc(Br)c1`, the outcome was “inactive”.
`COc1ccc(C(=O)NCC2(N(C)C)CCCCC2)cc1` was tested, and the outcome was “inactive”.
`C=CCN1CCN(CCOC(=O)C(O)(c2ccccc2)c2ccccc2)CC1` was tested, and the outcome was “inactive”.
With `O=C(NCC1(N2CCCCC2)CCCCC1)c1cc(F)c(F)cc1Cl` the outcome was “inactive”.
`Cc1ccccc1C(=O)NCC1(N2CCCCC2)CCCCC1` was tested, and the outcome was “inactive”.
With `CN(C)C1CCCC1OC(=O)C(O)(c1ccccc1)c1ccccc1` (stereo not drawn) the outcome was “inactive”.
For `Cc1ccc(C(=O)NCC2(N3CCCCC3)CCCCC2)cc1`, the outcome was “inactive”.
`CC(C)N1C(=O)CC2(CCN(CCOC(=O)C(O)(c3ccccc3)c3ccccc3)CC2)C1=O` was tested, and the outcome was “inactive”.
With `CCN(CC)CC(C)C(C)OC(=O)C(O)(c1ccccc1)c1ccccc1` (stereo not drawn) the outcome was “inactive”.
With `COc1cc(SC)ccc1C(=O)NCC1(N(C)C)CCCCC1` the outcome was “inactive”.
With `CN1[C@@H]2CC[C@H]1CC(OC(=O)C(O)(c1ccccc1)c1ccccc1)C2` (stereo partly drawn) the outcome was “inactive”.
In the case of `O=C(NCC1(N2CCCCC2)CCCCC1)c1cc([N+](=O)[O-])ccc1Cl`, the outcome is reported as “inactive”.

Source: PubChem BioAssay AID2237 (Johns Hopkins Ion Channel Center, 2010)
